# From paper PMC12770939 (Clinical Cancer Research, 2025)
# Test system: FGFR2-expressing cell lines
# Conditions: excess Bliss score, n=14 cell lines, Supplementary Fig. S11
substance,measurement,value
AZD4547,combination effect with inavolisib,synergized
